Common to all, as to type: cell-based
Assay [1] concerns the target Adenosine receptors; A1 & A3 (Homo sapiens) (UniProt P30542+P0DMS8). The experiment in a line: Ratio of binding affinity for human adenosine A1 and A3 receptors expressed in HEK293 cells.
Assay [2] relates to HEK293. The experiment in a line: Ratio of binding affinity for rat adenosine A1 and human adenosine A3 receptors expressed in HEK293 cells.
The target in assay [3] is Adenosine receptors; A2a & A3 (Homo sapiens) (UniProt P0DMS8+P29274). The experiment in a line: Ratio of binding affinity for human adenosine A2A and A3 receptors expressed in HEK293 cells.
Assay [4] has as its system HEK293. The experiment in a line: Ratio of binding affinity for rat adenosine A2A of striatal membranes and human adenosine A3 receptors expressed in HEK293 cells.

The chains behind the UniProt entries cited, without tags or fusion partners.
UniProt P30542, whole entry, looked up: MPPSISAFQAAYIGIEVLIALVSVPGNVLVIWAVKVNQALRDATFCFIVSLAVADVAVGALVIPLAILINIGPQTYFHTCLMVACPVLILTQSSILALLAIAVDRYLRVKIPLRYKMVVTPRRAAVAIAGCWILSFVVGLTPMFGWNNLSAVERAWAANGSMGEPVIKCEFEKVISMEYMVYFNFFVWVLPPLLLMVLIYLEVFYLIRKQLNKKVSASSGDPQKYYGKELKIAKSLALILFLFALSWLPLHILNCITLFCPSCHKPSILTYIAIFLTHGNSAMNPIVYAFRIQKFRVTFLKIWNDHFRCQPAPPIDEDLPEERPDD
UniProt P0DMS8, whole entry, looked up: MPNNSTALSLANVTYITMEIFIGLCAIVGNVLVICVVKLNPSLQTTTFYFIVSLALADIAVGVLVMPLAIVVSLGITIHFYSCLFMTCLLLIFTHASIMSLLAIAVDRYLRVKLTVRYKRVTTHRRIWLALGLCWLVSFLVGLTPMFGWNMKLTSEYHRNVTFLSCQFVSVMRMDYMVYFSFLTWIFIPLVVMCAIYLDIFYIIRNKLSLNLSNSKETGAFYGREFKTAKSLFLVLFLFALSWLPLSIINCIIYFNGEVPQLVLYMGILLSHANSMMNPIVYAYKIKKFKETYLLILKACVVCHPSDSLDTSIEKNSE

For the compound `CCCn1cc2c(nc(NC(=O)Nc3ccc(OC)cc3)n3nc(-c4ccco4)nc23)n1`, the Ratio in assay [1] was 4130; in the assay on HEK293 [2] it was greater than 34500; in assay [3] it was 486; in the assay with HEK293 [4] it was 6870.
